Tests used:
[1] = target: IL-2 receptor (IL-2R) on primary pan T-cells from healthy donors (human) (UniProt P01589); test: cell-based or functional assay
[2] = target: recombinant biotinylated TNFα (human) (UniProt P01375); test: ELISA: conjugate coated on the plate, biotinylated human TNFα titrated (the concentration is that of TNFα), streptavidin-HRP detection, OD 450 nm
[3] = target: His-tagged human Fc gamma receptor I (FcγRI/CD64) (R&D, 1257-FC-050) (human) (UniProt P12314); test: ELISA: antibody coated on the plate, His-tagged FcγRI titrated (the concentration is that of FcγRI), biotin anti-His antibody and streptavidin-HRP detection, OD 450 nm
[4] = target: recombinant biotinylated TNFα (human) (UniProt P01375); test: ELISA: antibody coated on the plate, biotinylated human TNFα titrated (the concentration is that of TNFα), streptavidin-HRP detection, OD 450 nm

Substance | CD4 con EC50 (nM), STAT5 phosphorylation [1] [nM] | CD8 EC50 (nM), STAT5 phosphorylation [1] [nM] | CD8 memory EC50 (nM), STAT5 phosphorylation [1] [nM] | CD8 naïve EC50 (nM), STAT5 phosphorylation [1] [nM] | Treg EC50 (nM), STAT5 phosphorylation [1] [nM] | EC50 (read off the curve) [2] [nM] | EC50 (read off the curve) [3] [nM] | EC50 (read off the curve) [4] [nM]
Composition C (biosimilar Adalimumab conjugated to Composition AA, DAR1, linker at K248 of the Fc) (from UniProt P0DOX5 2-449; P0DOX7 1-214; P60568 21-153) | 346 | 475 | 534 | 508 | 14.8 |  |  | 
Composition C (biosimilar Adalimumab conjugated to Composition AA, DAR1, linker at K248 of the Fc) (from UniProt P0DOX5 2-449; P0DOX7 1-214; P60568 21-153) (other; other documents disagree on this pair) |  |  |  |  |  | 0.07 |  | 
Composition D (biosimilar Adalimumab conjugated to Composition AA, DAR2, linker at K248 of the Fc) (from UniProt P0DOX5 2-449; P0DOX7 1-214; P60568 21-153) | 906 | 720 | 1000 | 1000 | 0.66 |  |  | 
biosimilar Adalimumab (antibody; other documents disagree on this pair) |  |  |  |  |  |  | 0.05 | 0.08

Source: patent US20230183331A1
